Laboratory results from patent publication US8242134B2, “Isoquinolinone derivatives as NK3 antagonists” (H. Lundbeck A/S, priority 2008, dated 2012).

Chains of the proteins cited; added tags and fusions are not shown.
UniProt P29371, whole entry: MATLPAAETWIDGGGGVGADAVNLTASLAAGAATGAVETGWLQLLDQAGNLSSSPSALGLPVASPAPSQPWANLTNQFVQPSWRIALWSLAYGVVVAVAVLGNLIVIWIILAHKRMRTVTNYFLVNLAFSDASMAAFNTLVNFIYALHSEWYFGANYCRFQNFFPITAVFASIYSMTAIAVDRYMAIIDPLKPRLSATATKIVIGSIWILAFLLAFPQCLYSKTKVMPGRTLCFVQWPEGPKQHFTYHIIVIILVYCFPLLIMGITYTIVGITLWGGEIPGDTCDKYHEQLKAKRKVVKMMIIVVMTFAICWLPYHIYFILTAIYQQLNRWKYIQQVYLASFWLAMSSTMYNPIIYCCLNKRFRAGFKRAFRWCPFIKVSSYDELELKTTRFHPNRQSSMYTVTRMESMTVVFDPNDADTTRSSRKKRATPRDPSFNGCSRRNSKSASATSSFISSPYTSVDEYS

Target: T1, human NK3 receptor (Homo sapiens, UniProt P29371)
T1 construct: expressed in transfected cells
Assay: NK3 receptor efficacy and potency assay (FLIPR calcium)
Format: cell-based
Details: dose-response curve with NKB
Description: BHK cells stably expressing the human NK3 receptor were seeded in 100 μl media in black walled clear-base 96-wells plates (Costar) aiming at a confluency of 95-100% at the day of assay. The assay was performed according to the FLIPR Calcium 4 Assay kit (Molecular Devices). At the day of the assay, the media was removed and the cells were washed once with the HBSS buffer (Hanks BSS buffer, pH 7.4 containing 20 mM Hepes) before 100 μl of a solution of the calcium assay reagent dissolved in the HBSS buffer containing 2.5 mM probinicid was added to the cells. The plates were incubated for 60 min at 34° C., 10% CO2 before use in the FLIPR for examination of fluorescence. […]
For efficacy and potency evaluation of compounds, these were diluted in HBSS buffer prior to test. For test of agonist activity, 25 μl of the diluted compound solution was added and the plate was analyzed for 5 minutes in the FLIPR. […] The plates were subsequently analyzed for 5 minutes before the assay was terminated. The maximal increase in fluorescence over background following each ligand addition was determined. The IC50 value was calculated using sigmoidal variable slope curve fitting, and the cIC50 value was determined using the equation (cIC50=IC50/(1+(EC85/EC50))), where EC85 and EC50 for NKB were determined as described above.

neurokinin B [NKB]
EC85 concentration of NKB: ~4 nM
